Molecular target: Prothrombin (Bos taurus, UniProt P00735)
Test: In vitro Enzyme Inhibitory activity measured against Thrombin

CC(C)(C)OC(=O)N[C@@H](C(=O)N1CC[C@H]1C(=O)N[C@H](C=O)CCCN=C(N)N)c1ccccc1
IC50: 13 nM
